Literature values as cited in patent US12275795B2, “Binding molecules against BCMA and uses thereof” (NOVARTIS AG, priority 2018, dated 2025).

Test system: EGFR mutant NSCLC
Settings: cited from earlier work

In the case of Cc1cc(C(=O)Nc2nc3cccc(Cl)c3n2[C@@H]2CCCCN(C(=O)/C=C/CN(C)C)C2)ccn1 [Compound A40, (R,E)-N-(7-chloro-1-(1-(4-(dimethylamino)but-2-enoyl)azepan-3-yl)-1H-benzo[d]imidazol-2-yl)-2-methylisonicotinamide], the efficacy in patients is listed as “has shown efficacy in EGFR mutant NSCLC patients”.
